The values that follow are results of earlier work, collected in publication PMC5659385.

The chains behind the UniProt entries cited, without tags or fusion partners. Residues count along the entry.
UniProt P01012, 2-386: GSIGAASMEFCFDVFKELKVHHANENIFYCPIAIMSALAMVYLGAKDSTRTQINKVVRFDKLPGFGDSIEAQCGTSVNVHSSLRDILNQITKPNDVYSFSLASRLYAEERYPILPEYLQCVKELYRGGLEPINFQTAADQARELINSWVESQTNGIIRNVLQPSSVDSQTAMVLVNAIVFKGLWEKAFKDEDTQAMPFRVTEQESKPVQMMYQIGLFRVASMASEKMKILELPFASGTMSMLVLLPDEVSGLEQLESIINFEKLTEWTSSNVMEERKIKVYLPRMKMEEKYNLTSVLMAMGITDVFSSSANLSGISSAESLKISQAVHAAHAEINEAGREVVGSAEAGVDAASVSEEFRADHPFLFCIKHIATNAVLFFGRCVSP

For the data set, the target named is ovalbumin (Gallus gallus) (UniProt P01012).

Turning to concanavalin A (from UniProt P02866), the dissociation constant Kd (in general, the free concentration of one partner at which half of the binding sites on the other are occupied at equilibrium, for simple one-to-one binding) is 38 nM.
